{"sequences": {"note": "Amino acid sequences for entries named in this document (tags omitted). A change or cut given only in a name is not applied to a line headed by its entry.", "UniProt P04191": "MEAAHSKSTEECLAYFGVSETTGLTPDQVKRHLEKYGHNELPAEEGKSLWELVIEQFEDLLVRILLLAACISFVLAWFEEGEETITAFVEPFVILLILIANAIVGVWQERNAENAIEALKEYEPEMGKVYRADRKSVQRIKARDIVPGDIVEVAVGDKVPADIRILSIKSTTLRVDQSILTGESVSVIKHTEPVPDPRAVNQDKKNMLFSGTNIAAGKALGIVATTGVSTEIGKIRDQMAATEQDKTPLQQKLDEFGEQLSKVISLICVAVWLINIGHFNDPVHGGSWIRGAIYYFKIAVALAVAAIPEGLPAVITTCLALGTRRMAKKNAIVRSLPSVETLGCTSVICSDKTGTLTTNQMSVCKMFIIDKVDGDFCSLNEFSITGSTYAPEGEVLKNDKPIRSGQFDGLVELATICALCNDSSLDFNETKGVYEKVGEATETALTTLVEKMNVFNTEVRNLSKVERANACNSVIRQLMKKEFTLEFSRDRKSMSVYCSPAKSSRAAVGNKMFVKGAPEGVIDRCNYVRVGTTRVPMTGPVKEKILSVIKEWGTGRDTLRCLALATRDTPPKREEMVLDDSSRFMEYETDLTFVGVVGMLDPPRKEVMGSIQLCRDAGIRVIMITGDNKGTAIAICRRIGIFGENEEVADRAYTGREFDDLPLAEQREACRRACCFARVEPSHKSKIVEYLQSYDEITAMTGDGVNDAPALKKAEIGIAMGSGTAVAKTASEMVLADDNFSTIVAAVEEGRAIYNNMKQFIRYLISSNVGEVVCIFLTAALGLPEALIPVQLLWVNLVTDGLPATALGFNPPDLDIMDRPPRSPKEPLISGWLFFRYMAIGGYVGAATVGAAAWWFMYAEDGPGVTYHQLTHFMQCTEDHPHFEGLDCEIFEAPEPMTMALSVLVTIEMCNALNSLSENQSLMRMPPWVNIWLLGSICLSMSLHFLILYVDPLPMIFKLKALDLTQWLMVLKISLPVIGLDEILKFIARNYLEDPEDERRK"}, "source": "BindingDB's records for doi:10.1016/j.bmc.2009.07.075", "about": "(Northern Kentucky University, 2009)", "biological_target": "Sarcoplasmic/endoplasmic reticulum calcium ATPase 1 (Oryctolagus cuniculus, UniProt P04191)"}
{"smiles": "O=[N+]([O-])c1ccc(Cc2cc(O)ccc2O)cc1", "note": "[hydroquinone derivative, 2b]", "values": [{"measurement": "IC50", "result": 5.7, "unit": "µM"}]}
